Antibody variant affinities, Ab-14 light chain, assay 1

All variants were tested on one target, the spike HR2 peptide PDVDLGDISGINAS (SARS-CoV-2).

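In library AAYL50, one, two or three CDR residues were substituted; doubles and triples were drawn at random. AlphaSeq pools MATa yeast showing the antibodies with MATalpha yeast showing the peptide. Pairs that bind mate more often; barcode pairs of the diploids are counted by sequencing. Scores were corrected for input abundance and mapped to Kd with protein pairs of known affinity run in the same pool. Each pool was mated in three replicate cultures.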

Parent scFv Ab-14: VH joined to VL by a 15-residue (Gly4Ser)3 linker. Changes lie in the light chain CDRs alone.
VH: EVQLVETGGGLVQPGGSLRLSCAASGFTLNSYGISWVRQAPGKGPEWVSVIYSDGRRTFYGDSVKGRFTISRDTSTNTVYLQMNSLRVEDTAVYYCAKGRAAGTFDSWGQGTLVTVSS
VL: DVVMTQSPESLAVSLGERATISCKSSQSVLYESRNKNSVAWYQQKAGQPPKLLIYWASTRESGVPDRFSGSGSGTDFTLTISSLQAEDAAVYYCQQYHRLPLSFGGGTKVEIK

Each variant's VL is given in full. Scale: log10 of Kd in nM, estimated from mating counts; low values are strong binders. An entry "ND" has no value in the source: the pair was not observed among the diploids in that replicate. This suggests poor binding but is not conclusive. Parent in this assay: reference entry 0.65, copy in this library 1.68.

| # | VL | replicates, log10 nM | signal with controls |
|---|---|---|---|
| 1 | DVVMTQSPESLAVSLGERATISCKSNQSVLYESCNKNSVAWYQQKAGQPPKLLIYWASTRESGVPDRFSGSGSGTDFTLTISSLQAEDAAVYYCQKYHRLPLSFGGGTKVEIK | ND / 3.67 / 5.01 | 7/9 (4.71) |
| 2 | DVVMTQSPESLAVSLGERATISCKISQSVLIESRNKNSVAWYQQKAGQPPKLLIYWASTRESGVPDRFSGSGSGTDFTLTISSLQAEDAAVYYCQQYHRLDLSFGGGTKVEIK | ND / ND / ND | 1/9 (4.29) |
| 3 | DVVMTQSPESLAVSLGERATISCKSSQSVLYESLNKNSVYWYQQKAGQPPKLLIYWASTRESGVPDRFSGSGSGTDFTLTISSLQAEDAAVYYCQQYHILPLSFGGGTKVEIK | ND / 4.30 / ND | 2/9 (5.21) |
| 4 | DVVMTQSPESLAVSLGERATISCKSSQSVLYESRNKNSVAWYQQKAGQPPKLLIYWASSRESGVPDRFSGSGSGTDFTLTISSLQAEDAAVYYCQQYMRLYLSFGGGTKVEIK | 3.94 / 3.05 / 3.13 | 0/9 |
| 5 | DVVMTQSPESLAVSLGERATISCKSSQSVLYESRNKNSDAWYQQKAGQPPKLLIYWASTRESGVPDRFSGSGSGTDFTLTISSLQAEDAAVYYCDQYHRPPLSFGGGTKVEIK | 5.02 / 4.15 / ND | 5/9 (4.60) |
| 6 | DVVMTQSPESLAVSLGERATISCKSSQSTLYESRNKNDVAWYQQKAGQPPKLLIYWASTRESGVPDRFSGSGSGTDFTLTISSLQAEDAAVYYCQQYHRYPLSFGGGTKVEIK | 3.28 / ND / 3.39 | 0/9 |
| 7 | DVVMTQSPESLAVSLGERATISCKSAQSVLAESRNKNSVAWYQQKAGQPPKLLIYWASTRESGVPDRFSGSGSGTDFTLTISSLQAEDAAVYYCQQYHRLPKSFGGGTKVEIK | 2.64 / ND / ND | 1/9 (2.19) |
| 8 | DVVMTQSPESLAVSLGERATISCKSSQSVLYESRNKNSEAWYQQKAGQPPKLLIYWASTRESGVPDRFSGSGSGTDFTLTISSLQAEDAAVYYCQQPHRLPLSFGGGTKVEIK | ND / ND / ND | 0/9 |
| 9 | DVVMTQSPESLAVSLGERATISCKSSQSVLYESRNKNSVFWYQQKAGQPPKLLIYWASTRESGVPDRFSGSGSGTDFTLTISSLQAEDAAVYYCQQYHRDLLSFGGGTKVEIK | 2.00 / 4.43 / ND | 2/9 (3.75) |
| 10 | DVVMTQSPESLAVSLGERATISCKSSQSRLYESRPKNSVAWYQQKAGQPPKLLIYWASTRESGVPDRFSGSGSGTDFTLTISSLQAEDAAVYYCFQYHRLPLSFGGGTKVEIK | ND / ND / ND | 0/9 |
| 11 | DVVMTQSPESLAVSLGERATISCKSSQSVLPVSRNKNSVAWYQQKAGQPPKLLIYWASTRESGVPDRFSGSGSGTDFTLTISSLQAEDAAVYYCQQYHCLPLSFGGGTKVEIK | 3.02 / 4.62 / ND | 1/9 (4.43) |
| 12 | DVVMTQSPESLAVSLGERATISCKSHQSVLAESRNKNSVAWYQQKAGQPPKLLIYWASTRESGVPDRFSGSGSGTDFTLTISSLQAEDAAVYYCQQYHRLPASFGGGTKVEIK | ND / ND / ND | 0/9 |
| 13 | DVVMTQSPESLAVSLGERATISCKSSCFVLYESRNKNSVNWYQQKAGQPPKLLIYWASTRESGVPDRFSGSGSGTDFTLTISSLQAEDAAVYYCQQYHRLPLSFGGGTKVEIK | ND / ND / ND | 0/9 |
| 14 | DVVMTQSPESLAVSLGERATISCKSSQSWLDESRNKNSVAWYQQKAGQPPKLLIYWASTGESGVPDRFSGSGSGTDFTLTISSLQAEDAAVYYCQQYHRLPLSFGGGTKVEIK | ND / ND / 6.09 | 5/9 (5.06) |
| 15 | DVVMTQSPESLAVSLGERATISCKSVQSVLYESRNNNSVIWYQQKAGQPPKLLIYWASTRESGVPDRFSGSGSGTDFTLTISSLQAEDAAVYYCQQYHRLPLSFGGGTKVEIK | ND / ND / ND | 1/9 (3.23) |
| 16 | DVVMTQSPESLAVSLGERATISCKSSQSVLYESWNKNSVAWYQQKAGQPPKLLIYWASVRESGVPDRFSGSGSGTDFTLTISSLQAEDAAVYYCQLYHRLPLSFGGGTKVEIK | 1.94 / 1.80 / 1.45 | 0/9 |
| 17 | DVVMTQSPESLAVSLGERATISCKSAQSVLYGSRNKNSVAWYQQKAGQPPKLLIYWASTRPSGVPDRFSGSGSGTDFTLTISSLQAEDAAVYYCQQYHRLPLSFGGGTKVEIK | 1.78 / 1.78 / 1.89 | 4/9 (4.24) |
| 18 | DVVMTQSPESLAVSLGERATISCKSSQSVLYESRNKPSVFWYQQKAGQPPKLLIYWASTRESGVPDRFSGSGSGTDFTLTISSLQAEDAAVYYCQQYHRLPLSFGGGTKVEIK | 4.68 / 5.02 / 4.45 | 4/9 (5.28) |
| 19 | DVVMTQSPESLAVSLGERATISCKSSQSVLYASRNKNSVAWYQQKAGQPPKLLIYWASTHESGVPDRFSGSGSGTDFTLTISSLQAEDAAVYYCQQYHRLPLGFGGGTKVEIK | ND / ND / ND | 4/9 (4.09) |
| 20 | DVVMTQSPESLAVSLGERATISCKSSQAVLYESRNRNSVAWYQQKAGQPPKLLIYWASTRESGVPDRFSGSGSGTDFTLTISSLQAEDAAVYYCQQYHRLYLSFGGGTKVEIK | ND / ND / ND | 0/9 |
| 21 | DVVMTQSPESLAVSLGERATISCKSSQSVLYESSNKNSVAWYQQKAGQPPKLLIYWASTRESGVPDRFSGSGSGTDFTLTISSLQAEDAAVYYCQRYHRAPLSFGGGTKVEIK | 0.32 / 0.52 / 0.40 | 3/9 (4.98) |
| 22 | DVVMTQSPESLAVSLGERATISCKSSQSVLYEHWNKGSVAWYQQKAGQPPKLLIYWASTRESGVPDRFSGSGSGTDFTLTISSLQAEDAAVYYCQQYHRLPLSFGGGTKVEIK | ND / ND / ND | 0/9 |
| 23 | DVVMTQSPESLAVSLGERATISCKRSQSVLYESRNKNSVAWYQQKAGQPPKLLIYWASTRMSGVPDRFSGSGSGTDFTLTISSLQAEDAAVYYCQQYHRGPLSFGGGTKVEIK | ND / ND / ND | 0/9 |
| 24 | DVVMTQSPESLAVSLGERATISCKSSQSVVYESRNKNEVAWYQQKAGQPPKLLIYWASTRESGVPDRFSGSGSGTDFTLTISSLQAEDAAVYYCQQYHRLPLSFGGGTKVEIK | ND / ND / ND | 0/9 |

The first 2 variants above that were never detected:

VL,"replicates, log10 nM",signal with controls
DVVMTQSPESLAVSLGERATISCKISQSVLIESRNKNSVAWYQQKAGQPPKLLIYWASTRESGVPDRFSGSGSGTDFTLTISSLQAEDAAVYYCQQYHRLDLSFGGGTKVEIK,ND / ND / ND,1/9 (4.29)
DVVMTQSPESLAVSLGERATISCKSSQSVLYESRNKNSEAWYQQKAGQPPKLLIYWASTRESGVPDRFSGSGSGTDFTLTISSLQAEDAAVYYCQQPHRLPLSFGGGTKVEIK,ND / ND / ND,0/9

Empty control strains, which show no peptide, gave a signal in 18% of pairings with library AAYL50; the median was 4.19 and 95% of these signals were weaker than 2.99. No background was subtracted. For each scFv, signals with the empty controls are counted beside the result, with their mean in brackets.

Source: Engelhart et al. 2022 (doi:10.1038/s41597-022-01779-4), MIT Lincoln Laboratory and A-Alpha Bio; data file from the FLAb repository.